In this experiment the target is bovine serum albumin (Bos taurus, UniProt P02769). As to the kind of experiment: Fluorescence intensity before and after addition of bovine serum albumin. As to conditions: pH 7.0, 10 mM Tris-HCl buffer; dye 1 μM; bovine serum albumin 40 μg/mL. In kind it is binding. On the procedure:
The ordinate is the fluorescence increasing fold. The equipment used is a spectrofluorophotometer (FP-6500). […] The concentrations of calf thymus DNA and bovine serum albumin are both 40 μg/mL.
Finally each mixture of dye and BSA solution is diluted with pH 7.0, 10 mM Tris-HCl buffer solution to 3 mL and the fluorescence emission spectra are determined respectively after stabilization. […] Finally each mixture of dye and calf thymus DNA solution is diluted with pH 7.0, 10 mM Tris-HCl buffer solution to 3 mL and the fluorescence emission spectra are determined respectively after stabilization. […] The equipment used is a spectrofluorophotometer (FP-6500).

Sequences of proteins named here, by UniProt entry; tags and fusion partners are left off. Residues count along the entry.
UniProt P02769, 25-607: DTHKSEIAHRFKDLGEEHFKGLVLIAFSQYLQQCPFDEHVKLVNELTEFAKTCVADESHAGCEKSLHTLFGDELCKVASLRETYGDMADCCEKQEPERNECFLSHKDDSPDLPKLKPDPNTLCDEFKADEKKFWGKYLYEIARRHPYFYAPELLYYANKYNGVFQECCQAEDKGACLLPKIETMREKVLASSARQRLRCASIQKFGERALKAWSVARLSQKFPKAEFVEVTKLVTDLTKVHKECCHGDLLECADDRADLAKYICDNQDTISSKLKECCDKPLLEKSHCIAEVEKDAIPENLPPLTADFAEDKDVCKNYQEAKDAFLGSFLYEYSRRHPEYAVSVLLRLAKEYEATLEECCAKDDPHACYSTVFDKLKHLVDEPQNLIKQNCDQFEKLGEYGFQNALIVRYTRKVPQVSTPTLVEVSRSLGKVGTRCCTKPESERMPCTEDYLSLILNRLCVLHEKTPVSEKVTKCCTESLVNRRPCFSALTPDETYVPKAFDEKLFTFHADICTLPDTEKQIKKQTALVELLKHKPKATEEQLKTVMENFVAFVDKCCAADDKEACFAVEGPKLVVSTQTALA

Turning to `CCN1C=C/C(=C\C=C\c2sc3ccccc3[n+]2CC)c2ccccc21` [M1, reference compound], the “fluorescence intensity increase with BSA solution” value came out at 5.5 fold.

The record behind these values is patent US8298766B2, “Fluorescent dyes, methods of synthesis and applications thereof” (priority 2010, dated 2012).
